Assay results taken from ChEMBL document CHEMBL1138027, “Dimethoxybenzo[i]phenanthridine-12-carboxylic acid derivatives and 6H-dibenzo[c,h][2,6]naphthyridin-5-ones with potent topoisomerase I-targeting activity and cytotoxicity” (Bioorg Med Chem Lett, 2004).

Biological target: T1, DNA topoisomerase 1 (Homo sapiens) (UniProt P11387)
T1 sequence (whole entry): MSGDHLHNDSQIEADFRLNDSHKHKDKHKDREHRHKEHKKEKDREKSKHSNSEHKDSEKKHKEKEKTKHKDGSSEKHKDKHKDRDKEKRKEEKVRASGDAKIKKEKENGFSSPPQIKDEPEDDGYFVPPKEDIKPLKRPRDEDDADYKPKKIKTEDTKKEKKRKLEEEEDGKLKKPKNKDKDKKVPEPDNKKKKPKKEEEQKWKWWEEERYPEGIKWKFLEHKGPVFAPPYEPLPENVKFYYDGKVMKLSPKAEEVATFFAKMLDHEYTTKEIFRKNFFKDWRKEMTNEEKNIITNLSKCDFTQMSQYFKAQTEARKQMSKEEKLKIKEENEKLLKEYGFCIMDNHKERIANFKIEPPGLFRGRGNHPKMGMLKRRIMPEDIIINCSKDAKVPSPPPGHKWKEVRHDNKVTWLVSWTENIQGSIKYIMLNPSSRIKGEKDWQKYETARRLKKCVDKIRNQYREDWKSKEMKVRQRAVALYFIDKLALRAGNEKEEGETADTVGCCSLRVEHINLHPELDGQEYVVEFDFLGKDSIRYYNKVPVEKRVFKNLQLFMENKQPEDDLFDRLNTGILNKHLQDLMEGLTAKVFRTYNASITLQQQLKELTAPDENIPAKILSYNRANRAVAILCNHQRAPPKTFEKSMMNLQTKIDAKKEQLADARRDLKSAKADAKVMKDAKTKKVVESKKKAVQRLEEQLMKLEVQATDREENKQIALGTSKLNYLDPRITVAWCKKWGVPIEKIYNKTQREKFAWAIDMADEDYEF
Assay: Relative effective concentration to cleave plasmid DNA with human topoisomerase I; compared to camptothecin=1

- REC: 2.5
SMILES: COc1cc2c(=O)n(CCN(C)C)c3c4cc5c(cc4ncc3c2cc1OC)OCO5
